Activity calls are given as the source filed them. No cut-off for these calls is given here.

One test concerns NCI-H522. Kind of test: Cytotoxicity against human NCI-H522 cells assessed as reduction in cell viability incubated for 3 days by methylene blue staining based spectrophotometric analysis. It is filed as functional. The conditions noted are these: NCI-H522, 72 h, time 3 day.
The target of test [1] is T1, Phospholipid hydroperoxide glutathione peroxidase GPX4 (Homo sapiens) (UniProt P36969).
T1 sequence (whole entry): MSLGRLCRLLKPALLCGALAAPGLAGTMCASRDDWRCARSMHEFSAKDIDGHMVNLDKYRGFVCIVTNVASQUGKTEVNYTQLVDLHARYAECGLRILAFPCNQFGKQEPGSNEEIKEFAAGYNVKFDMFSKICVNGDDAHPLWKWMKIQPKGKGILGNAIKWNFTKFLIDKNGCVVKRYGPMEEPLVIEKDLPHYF
Kind of test: Inhibition of recombinant GPX4 (unknown origin) at 100 uM incubated for 60 mins followed by NADPH addition.

Regarding `C#Cc1nc(C2=C(C)C(O)CC2)cs1` (racemic), the CC50 in the test on NCI-H522 was found to be 2560 nM. Also, in test [1], the inhibition entry is “Active”.

Broadly, the CC50 is the concentration giving 50% cytotoxicity.

Source of the values: ChEMBL document CHEMBL5614438, “CETZOLE Analogs as Potent Ferroptosis Inducers and Their Target Identification Using Covalent/Affinity Probes” (J Med Chem, 2024).
